Measurements reported in US20090258079A1, “Biocompatible Block Copolymer, Use Thereof and Manufacturing Method Thereof” (priority 2005, published 2009).

What was measured:
[1] = Dispersion and stability of drug micro-crystal composite (underwater kneading); type: physicochemical; settings: 10 mg in mortar, kneaded with 1 ml of liquid
Excerpt: To prepare a drug composite particle comprising the block copolymer of the present invention as a constituent component, for example, an underwater kneading method is employed. A drug composite can be manufactured by adding a drug to an aqueous solution of the block copolymer and kneading them together. A composite of a nano-order drug crystal and the block copolymer can be formed by carrying out kneading efficiently and the suspended state of the drug is kept stably.
It is understood from this that the block copolymer of the present invention can form a stable composite with drug micro-crystals.

[2] = Solubilization of a drug by micelle formation with the block copolymer; settings: drug without block copolymer

## dexamethasone palmitate [DMP]
[1]
  dispersion of dexamethasone palmitate crystals on kneading: did not disperse
[2]
  solubility of the drug alone in water: insoluble in water
